The test in a line: Fluorescence quenching of MPS-PPV monolayer films by nitroaromatic vapor.

Only a part of the results on these compounds is given; other tests are left out.

As for dinitrotoluene, the “quenching of film fluorescence on vapor exposure (in words)” value (single monolayer MPS-PPV film on glass) is reported as “substantial quenching of the fluorescence from the films”. Besides, the “level at which the film senses the vapor by fluorescence quenching” value (vapor, room temperature, from vapor pressure) is reported as “less than 8×10^−9 M”.

(Values after patent US6979543B2.)
